Consider 108 compounds from PubChem BioAssay AID624263 (National Center for Advancing Translational Sciences (NCATS), 2012).

Molecules are shown by their SMILES. The list shows a part of the results, in another mix than the full data. The source made the active and inactive calls. The call rests on the fitted dose curve; in most records, active means well fitted activation curve with a large enough effect; inconclusive means small, poorly fitted or top-dose-only effect; inactive means flat fitted curve, though single readings scatter; cell line not stated here. A call without a number means that no potency is given here.
Potency means the concentration at half of the fitted maximal effect.

The nature of the assay: A Quantitative High throughput Screen to Identify Chemical Modulators of PINK1 Expression. Further: nearly all actives have a fitted effect of over 65% in size. The settings on record: PINK1 immunofluorescence, high-content cytometry, 24 h; series mostly up to 76.6 µM.
As to `O=P1(Nc2ccccn2)COc2ccccc2OC1`, the Potency entry was “inactive”.

As to `CCC1=CC2Cc3nc4ccc(Cl)cc4c(N)c3C(C1)C2` (stereo not drawn), the Potency result is “inactive”.

Take `O=C(O)C(O)c1ccc(N(CCCl)CCCl)cc1.c1ccncc1` (stereo not drawn): the Potency entry was “inactive”.

As for `O=[N+]([O-])c1cc([N+](=O)[O-])c(-n2nnc3ccccc32)c([N+](=O)[O-])c1`, the Potency result is “inactive”.

Regarding `CCOP(=O)(NC(=NC(C)c1ccccc1)NC(C)c1ccccc1)OCC` (stereo not drawn), the Potency entry was “inactive”.

On to `Nc1ccc(CCCCOc2ccccc2)cc1.O=[N+]([O-])c1cc([N+](=O)[O-])c(O)c([N+](=O)[O-])c1`, for which the Potency entry is “inactive”.

Consider `CCOP(=O)(Nc1ccc(C)cn1)OCC`, for which the Potency entry was “inactive”.

As for `CN(CCCl)Cc1cc(Cl)c(NC2=NCCN2)c(Cl)c1`, the Potency result is “inactive”.

For `Cc1ccc(S(=O)(=O)N(CCCN)CCCc2c(C)nc(N)[nH]c2=O)cc1.O=[N+]([O-])c1cc([N+](=O)[O-])c(O)c([N+](=O)[O-])c1`, the Potency entry was “inactive”.

For `CC(C)/C=N\N=C(\N)N[N+](=O)[O-]`, the Potency result is “inactive”.

As to `CN(C(=O)Cc1ccc(Cl)c(Cl)c1)[C@@H]1CCCC[C@H]1N1CCCC1`, the Potency entry is “inactive”.

In the case of `Cc1nc2ccc3ccccc3c2s1.O=[N+]([O-])c1cc([N+](=O)[O-])c(O)c([N+](=O)[O-])c1`, the Potency entry is “inactive”.

As to `CC1(CBr)Cn2c(nc3ccccc3c2=O)S1` (stereo not drawn), the Potency entry was “inactive”.

Turning to `O=[N+]([O-])c1cc([N+](=O)[O-])c(-c2cnn(-c3ccccc3)c2)c([N+](=O)[O-])c1`, the Potency result is “inactive”.

With `COc1ccccc1CNC(=O)COC(=O)C(O)(c1ccccc1)c1ccccc1`, the Potency result is “inactive”.

For `CN(C)C1(CNC(=O)c2ccc(S(C)(=O)=O)cc2)CCCCC1`, the Potency entry was “inactive”.

On to `CC1=C2N=C(C=C3N=C(C(C)=C4[N-][C@@](C)([C@@H]5N=C1[C@](C)(CCC(=O)NC[C@@H](C)OP(=O)([O-])O[C@H]1[C@@H](O)[C@@H](n6cnc7cc(C)c(C)cc76)O[C@@H]1CO)[C@H]5CC(N)=O)[C@@](C)(CC(N)=O)[C@@H]4CCC(N)=O)[C@@](C)(CC(N)=O)[C@@H]3CCC(N)=O)C(C)(C)[C@@H]2CCC(N)=O.[C-]#N.[Co+3]`, for which the Potency entry is “inactive”.

`O=[N+]([O-])c1cc([N+](=O)[O-])c(Nc2nnnn2CCO)c([N+](=O)[O-])c1`: the Potency entry was “inactive”.

For `O=C(/C=C/c1ccccc1)OC1CN2CCC1CC2` (stereo not drawn), the Potency entry was “inactive”.

As for `CCCC1OP(=O)(Nc2ccccc2)OCC1CC` (stereo not drawn), the Potency entry was “inactive”.

Turning to `Cc1nn(-c2ccccc2)c2c1P(=O)(N1CCOCC1)N(C)C(c1ccccc1)=N2` (stereo not drawn), the Potency entry was “inactive”.

As to `CC1CCC(C(C)C)C(OP(=O)(Nc2ccccn2)c2ccccc2)C1` (stereo not drawn), the Potency result is “inactive”.

On to `Cc1ccc(C(=O)OC2CN3CCC2CC3)cc1` (stereo not drawn), for which the Potency entry is “inactive”.

On to `COc1cc([N+](=O)[O-])ccc1[N+](=O)[O-]`, for which the Potency result was “inactive”.

`COc1cc(C2NCCC3(OCCO3)C2(C)C)cc(OC)c1OC.O=[N+]([O-])c1cc([N+](=O)[O-])c(O)c([N+](=O)[O-])c1` (stereo not drawn): the Potency result was “inactive”.

For `CCCOc1ccc(NP(C)(=O)Oc2ccc(Cl)cc2)cc1` (stereo not drawn), the Potency entry is “inactive”.

For the compound `CP(=O)(Nc1ccc(SC(F)(F)F)cc1)Oc1ccccc1` (stereo not drawn), the Potency result was “inactive”.

On to `Nc1cccc([As](=O)(O)c2ccccc2)c1`, for which the Potency entry was “inactive”.

`O=[As](O)(c1cccs1)c1cccs1`: the Potency result is “inactive”.

For the compound `Cc1ccc(OCC(=O)OC2CN3CCC2CC3)cc1` (stereo not drawn), the Potency result is “inactive”.

Consider `O=P1(Nc2ccc(Br)cn2)COc2ccccc2OC1`, for which the Potency entry was “inactive”.

For `NS(=O)(=O)c1cccc(NC(=O)COC(=O)C(O)(c2ccccc2)c2ccccc2)c1`, the Potency entry was “inactive”.

`COc1ccccc1OP(C)(=O)Nc1c(C)cccc1C` (stereo not drawn): the Potency result is “inactive”.

As to `CN1CCCCC1COC(=O)C1(O)c2ccccc2CCc2ccccc21` (stereo not drawn), the Potency result is “inactive”.

Take `O=P1(Nc2ncccn2)COc2ccccc2OC1`: the Potency entry is “inactive”.

`COP(=O)(OC)N1CC1c1ccccc1` (stereo not drawn): the Potency result is “inactive”.

Consider `CCCCOc1ccc(C(=O)NCC2(N3CCCCC3)CCCCC2)cc1OC`, for which the Potency result is “inactive”.

Turning to `Cc1cc(SC(NC(=O)c2ccccc2)C(Cl)(Cl)Cl)nc(C(C)C)n1` (stereo not drawn), the Potency result is “inactive”.

In the case of `O=C(O)C(=O)c1ccc(N(CCCl)CCCl)cc1.c1ccc(Nc2ccccc2)cc1`, the Potency entry was “inactive”.

For the compound `CCOC(=O)Nc1ccc([As](=O)(O)O)c(O)c1`, the Potency result was “inactive”.

For the compound `CC1CCNP(=O)(N(CCCl)CCCl)O1` (stereo not drawn), the Potency entry was “inactive”.

In the case of `O=P(Nc1ccccn1)(c1cccc2ccccc12)c1cccc2ccccc12`, the Potency entry was “inactive”.

Take `Cc1cc(SC(NC=O)C(Cl)(Cl)Cl)ncn1` (stereo not drawn): the Potency entry was “inactive”.

As to `COc1ccccc1OP(C)(=O)Nc1ccccc1` (stereo not drawn), the Potency result was “inactive”.

For the compound `CP(=O)(Nc1ccccc1Br)Oc1ccccc1` (stereo not drawn), the Potency result is “inactive”.

On to `O=[N+]([O-])c1ccc(Nc2ccc(Oc3ccc([N+](=O)[O-])cc3[N+](=O)[O-])cc2)c([N+](=O)[O-])c1`, for which the Potency result is “inactive”.

On to `CP(=S)(Nn1cnnc1)Oc1ccccc1` (stereo not drawn), for which the Potency entry is “inactive”.

For the compound `CCOC(=O)Nc1cccc([As](=O)(O)O)c1`, the Potency result is “inactive”.

Take `O=C(COc1ccccc1)OC1CN2CCC1CC2` (stereo not drawn): the Potency entry was “inactive”.

As to `CCc1ccc(OP(C)(=O)N2CCN(c3ccc([N+](=O)[O-])cc3)CC2)cc1` (stereo not drawn), the Potency result is “inactive”.

For the compound `O=C(Nc1ccncc1[N+](=O)[O-])c1ccc([N+](=O)[O-])cc1[N+](=O)[O-]`, the Potency result is “inactive”.

Turning to `Cc1cc(C)cc(OP(C)(=O)Nc2ccc(SC(F)(F)F)cc2)c1` (stereo not drawn), the Potency result was “inactive”.

Regarding `Cc1cccc(C)c1OP(C)(=O)Nc1ccc(SC(F)(F)F)cc1` (stereo not drawn), the Potency entry is “inactive”.

Turning to `CP(=O)(Nc1ccc(SC(F)(F)F)cc1)Oc1ccc(Cl)cc1` (stereo not drawn), the Potency result is “inactive”.

On to `CP(=O)(Oc1ccccc1)OC(c1ccccc1)C(F)(F)F` (stereo not drawn), for which the Potency result was “inactive”.

Regarding `COC(=O)C1(C)COP(=O)(N2CCCC2)OC1` (stereo not drawn), the Potency entry is “inactive”.

`CCC(C)N(CC(C)C)C(=S)SC(NC(C)=O)C(Cl)(Cl)Cl` (stereo not drawn): the Potency entry is “inactive”.

`CCOP(=O)(Nc1cccc2cccnc12)OCC`: the Potency entry was “inactive”.

As for `O=C(OC1CN2CCC1CC2)c1cccc([N+](=O)[O-])c1` (stereo not drawn), the Potency result was “inactive”.

For the compound `CCOP(C)(=S)SCC(=O)NC(C)C(=O)O` (stereo not drawn), the Potency result is “inactive”.

As for `CCOC(=O)c1ccc(NC(=O)C(C)(CCl)SC)cc1` (stereo not drawn), the Potency result is “inactive”.

As to `CCOC(=O)c1ccc(NP(C)(=O)Oc2ccc(OC)cc2)cc1` (stereo not drawn), the Potency entry is “inactive”.

With `O=[N+]([O-])c1cc([N+](=O)[O-])c(O)c([N+](=O)[O-])c1.c1ccc(Oc2ccncc2)cc1`, the Potency entry is “inactive”.

For `O=P1(N(CCCl)CCCl)OCCCN1CCCl` (stereo not drawn), the Potency result was “inactive”.

Take `O=P1(N(CCCl)CCCl)Nc2ccccc2N1`: the Potency entry was “inactive”.

As to `COc1ccc2nc(NP(=O)(c3ccccc3)c3ccccc3)sc2c1`, the Potency result was “inactive”.

Take `COc1cc(I)ccc1[As](=O)(O)O`: the Potency result was “inactive”.

In the case of `Cc1c2c(nc3ccccc13)SC(C(Cl)Cl)C2` (stereo not drawn), the Potency result is “inactive”.

Turning to `O=C(OC1CN2CCC1CC2)C12CC3CC(CC(C3)C1)C2` (stereo not drawn), the Potency result is “inactive”.

`CCN(CC)CCCOC(=O)C(O)(c1ccccc1)c1ccccc1`: the Potency result was “inactive”.

On to `Cc1cc(=O)[nH]c(N[N+](=O)[O-])n1`, for which the Potency result is “inactive”.

Regarding `O=[N+]([O-])c1cc(Oc2ccc([N+](=O)[O-])cc2C(F)(F)F)cc([N+](=O)[O-])c1`, the Potency entry was “inactive”.

On to `COc1ccc(N/C(=N/P(=O)(N2CCOCC2)N2CCOCC2)N2CCOCC2)cc1`, for which the Potency result is “inactive”.

Take `COc1ccccc1-c1ccccn1.O=[N+]([O-])c1cc([N+](=O)[O-])c(O)c([N+](=O)[O-])c1`: the Potency result is “inactive”.

Regarding `[N-]=[N+]=NC1CCCCC1NC(=O)c1cc([N+](=O)[O-])cc([N+](=O)[O-])c1` (stereo not drawn), the Potency entry is “inactive”.

`Cc1ccc(OP(=O)(Nc2ccc([N+](=O)[O-])cn2)Oc2ccc(C)cc2)cc1`: the Potency result was “inactive”.

As for `CC(C)(C)c1ccc(OP(C)(=O)Nc2ccc(SC(F)(F)F)cc2)cc1` (stereo not drawn), the Potency result was “inactive”.

For `ClCCN(CCCl)c1ccc(CC2C=CC=C2)cc1`, the Potency result is “inactive”.

`Cc1cccc(C)c1OP(C)(N)=O` (stereo not drawn): the Potency result was “inactive”.

For `O=[N+]([O-])c1ccc2c(c1)C=Nc1ccccc1O2`, the Potency result is “inactive”.

As for `Cc1ccc2nc3c(c(C)c2c1)CC(C(Cl)Cl)S3` (stereo not drawn), the Potency entry is “inactive”.

As to `O=[N+]([O-])c1cc([N+](=O)[O-])c(Nc2cccnc2)c([N+](=O)[O-])c1`, the Potency was active: 39.8 µM.

As for `C[As](=O)(O)c1cccc(C(=O)O)c1`, the Potency result is “inactive”.

Take `O=[As](O)(c1ccc(O)cc1)c1ccccc1O`: the Potency entry is “inactive”.

Take `O=[N+]([O-])c1ccc(-c2cc([N+](=O)[O-])c(O)c([N+](=O)[O-])c2)cc1`: the Potency entry was “inactive”.

As to `COc1cc(C(=O)NCC2(N3CCOCC3)CCCCC2)ccc1OCC(C)C`, the Potency result is “inactive”.

In the case of `COc1ccccc1OP(C)(=O)Nc1cc(Cl)ccc1C` (stereo not drawn), the Potency entry was “inactive”.

Regarding `CC(C)NC(=O)NP(=O)(Oc1ccccc1)Oc1ccccc1`, the Potency result is “inactive”.

In the case of `O=C(OC1CN2CCC1CC2)c1cccc2[nH]cnc12` (stereo not drawn), the Potency entry was “inactive”.

Consider `CCN(CC)C(=S)SC(NC=O)C(Cl)(Cl)Cl` (stereo not drawn), for which the Potency entry is “inactive”.

Consider `COc1ccc(OP(C)(=O)Nc2cccc(F)c2)cc1` (stereo not drawn), for which the Potency entry was “inactive”.

In the case of `O=[N+]([O-])c1cc([N+](=O)[O-])c(-c2ccn[nH]2)s1`, the Potency result is “inactive”.

`Cc1cc(C)cc(OP(C)(N)=O)c1` (stereo not drawn): the Potency result is “inactive”.

Regarding `CCOC(=O)c1ccc(NP(C)(=O)Oc2ccccc2)cc1` (stereo not drawn), the Potency entry is “inactive”.

Turning to `ClCCSc1nnc(-c2cccnc2)o1`, the Potency result is “inactive”.

Turning to `O=Cc1ccc(NCCCl)cc1`, the Potency entry was “inactive”.

Turning to `COc1ccccc1OP(C)(=O)Nc1ccc(C)cc1` (stereo not drawn), the Potency entry is “inactive”.

With `COC(=O)C1(C)COP(=O)(N2CCCCCC2)OC1` (stereo not drawn), the Potency result was “inactive”.

On to `CC(C)c1ccc(OP(=O)(Nc2ccccn2)Oc2ccccc2F)cc1` (stereo not drawn), for which the Potency entry is “inactive”.

`Cc1ccc(NP(C)(=O)Oc2ccccc2)c(C)c1` (stereo not drawn): the Potency result was “inactive”.

Regarding `COc1ccc(OP(C)(=O)Nc2ccccc2Br)cc1` (stereo not drawn), the Potency result was “inactive”.

For `Cc1cc(SC(NC(=O)c2ccc(F)cc2)C(Cl)(Cl)Cl)ncn1` (stereo not drawn), the Potency entry was “inactive”.

`CCOP(=O)(Nc1ccccc1)OCC`: the Potency entry is “inactive”.

As for `COc1ccccc1OP(C)(=O)Nc1ccc(C)c(C)c1` (stereo not drawn), the Potency result was “inactive”.

As for `Cc1ccc(NP(=O)(Oc2ccccc2F)Oc2ccccc2F)nc1`, the Potency result is “inactive”.

In the case of `CN(C(=O)Cc1ccc(Cl)c(Cl)c1)[C@H]1CCCC[C@@H]1N1CCCC1`, the Potency result is “inactive”.

On to `Cc1cc(C)cc(OP(C)(=O)Nc2cccc(C(F)(F)F)c2)c1` (stereo not drawn), for which the Potency result is “inactive”.

As for `CN(C)P(=O)(N(C)C)n1c(Nc2ccccc2)nnc1-c1ccccc1`, the Potency entry is “inactive”.
